Measurements published in patent US20230116728A1, “SECONDARY BATTERY, BATTERY PACK, VEHICLE, AND STATIONARY POWER SUPPLY” (KABUSHIKI KAISHA TOSHIBA, priority 2021, published 2023).

Test: Measurement of solubility of antioxidant in water
Format: physicochemical
Details: room temperature (23° C.), 10 g reagent charged, ultrasonic 10 minutes, insoluble components weighed

(±)-α-tocopherol
solubility in 100 mL of water: 0.5 g
